The values that follow come from US20110313041A1 (priority 2008, published 2011).

Protein sequences, listed by entry. Tags and fused reporters are not part of them. Residues count along the entry.
UniProt P22303, 32-614: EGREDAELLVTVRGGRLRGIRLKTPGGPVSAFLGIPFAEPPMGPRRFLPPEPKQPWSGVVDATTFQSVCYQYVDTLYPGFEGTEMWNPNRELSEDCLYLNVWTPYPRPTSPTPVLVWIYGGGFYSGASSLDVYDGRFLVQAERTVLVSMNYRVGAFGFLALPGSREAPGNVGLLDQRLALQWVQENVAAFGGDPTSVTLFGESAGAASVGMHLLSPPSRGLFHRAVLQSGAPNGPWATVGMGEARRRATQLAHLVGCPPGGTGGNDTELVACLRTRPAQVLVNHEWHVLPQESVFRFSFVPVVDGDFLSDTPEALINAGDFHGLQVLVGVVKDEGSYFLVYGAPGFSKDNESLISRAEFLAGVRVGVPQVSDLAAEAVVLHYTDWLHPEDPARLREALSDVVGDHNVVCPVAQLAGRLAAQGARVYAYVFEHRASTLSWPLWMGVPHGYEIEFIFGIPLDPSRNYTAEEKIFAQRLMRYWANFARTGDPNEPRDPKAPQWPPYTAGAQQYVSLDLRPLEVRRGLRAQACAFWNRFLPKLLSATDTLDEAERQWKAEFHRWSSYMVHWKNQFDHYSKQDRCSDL

The target in this data set is T1, Acetylcholinersterase (Homo sapiens, UniProt P22303).
T1 construct: endogenous in cells; host or cells: human subject in vivo (oral intake of the drug)
Briefly: treatment of chronic fatigue with Neostigminbromid, reactions at breakfast. It is filed as in vivo. Here is the method: Immediately afterwards, response experiment to sublingual/buccal applied 2 g-Panthenol Tbl. was executed. […] After its decay and continuation of the breakfast with bread the same reactions in bladder, womb and bowel 10 minutes later repeated with time shortened duration. […] The 140 mg of the Acetylcholinersteraseinhibitor Neostigminbromid were still effective after 6 indifferent hours.
Acetylcholine, the natural excitation transmitter from the nerve to the muscle effects striped muscles in concentrations of 10^−6 g/l, smooth muscles already in concentrations of 10^−16 g/l. (4) These “adverse” reactions are contractions of smooth muscles of lachrymal gland, bladder, stomach, intestine, caused by there suddenly synthesized acetylcholine, which exceeds the Response threshold that is 10^−16 grams per liter of acetylcholine in smooth muscles: • a) within 10 minutes of ingestion into the stomach and after the end of reaction; • b) within 10 minutes of sublingual/buccal absorption of 2000 mg Tbl Panthenol, while Acetylcholinersterase-inhibition amongst 140 mg Neostgminbromid is existing. […] (13)

Molecules are shown by their SMILES. Bounds are passed on as bounds.

Take `CN(C)C(=O)Oc1cccc([N+](C)(C)C)c1.[Br-]` [Neostigminbromid]: the duration of effectiveness (140 mg Neostigminbromid) is at least 6 h. The “time until adverse reactions started after the first bite” value (140 mg Neostigminbromid late at night, breakfast next morning) is listed as 10 min. In addition, for the setting “140 mg Neostigminbromid, after first bite of breakfast”, the adverse reactions entry is listed as “weeping nose, watery eyes, urination, body trimming”. For the same molecule, the “time after which adverse reactions subsided” value (140 mg Neostigminbromid, breakfast) was 15 min.
